These are literature values, as cited in paper PMC7187754, “Identification of the Molecular Determinants Involved in Antimicrobial Activity of Pseudodesmin A, a Cyclic Lipopeptide From the Viscosin Group” (Frontiers in Microbiology, 2020).

The data set concerns selection of Gram-negative bacteria. The conditions noted are these: ref Sinnaeve et al., 2009b; cited from earlier work.

Regarding Pseudodesmin A, the “activity against Gram-negative bacteria” value is given as “did not show activity”.
